Reference: patent US11608318B2, “Solid state forms of Omecamtiv mecarbil and Omecamtiv mecarbil diHCl” (ASSIA CHEMICAL INDUSTRIES LTD., priority 2018, dated 2023)

Experiment: Solid state form stability under stress conditions (high temperature, high relative humidity; mechanical)
Conditions: stressed conditions, e.g. high temperature and relative humidity
Excerpt: (§1) Pharmaceutical molecules may display solid to solid phase transformations and transformations between polymorphs; which may detected by exposure of the solid state form to stress conditions of e.g., high temperature and high relative humidity.
as §1

Citric Omecamtiv mecarbil diHCl [form OCC-1]
thermodynamic and mechanical stability of the solid state form (polymorphic conversion): thermodynamically and mechanically stable
